The text below walks through data of patent US11939340B2, “CDK inhibitors and their use as pharmaceuticals” (Prelude Therapeutics Incorporated, priority 2022, dated 2024).

By UniProt entry, the sequences of proteins in these tests, tags left out.
UniProt P11802, whole entry: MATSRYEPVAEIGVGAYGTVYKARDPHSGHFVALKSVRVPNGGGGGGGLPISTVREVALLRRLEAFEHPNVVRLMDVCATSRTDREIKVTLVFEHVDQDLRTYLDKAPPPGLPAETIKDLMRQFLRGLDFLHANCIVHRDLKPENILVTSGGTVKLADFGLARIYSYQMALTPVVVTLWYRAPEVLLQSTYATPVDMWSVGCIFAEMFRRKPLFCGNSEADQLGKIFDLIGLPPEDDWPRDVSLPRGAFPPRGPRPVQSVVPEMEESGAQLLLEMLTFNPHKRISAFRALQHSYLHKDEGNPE
UniProt P24385, whole entry partner: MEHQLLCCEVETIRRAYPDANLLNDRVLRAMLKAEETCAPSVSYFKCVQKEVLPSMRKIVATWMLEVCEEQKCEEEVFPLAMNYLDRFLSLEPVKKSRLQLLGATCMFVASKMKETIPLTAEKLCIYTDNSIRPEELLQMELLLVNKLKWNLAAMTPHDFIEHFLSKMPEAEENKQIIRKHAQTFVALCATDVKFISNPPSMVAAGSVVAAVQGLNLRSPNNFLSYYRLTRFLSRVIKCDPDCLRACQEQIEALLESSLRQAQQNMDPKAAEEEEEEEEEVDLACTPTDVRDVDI

Where only a bound is given, the exact number is not on record here.

Test [1] addresses CDK2/Cyclin E2 (Homo sapiens, UniProt P24941). Description: CDK2/CyclinE2 Enzymatic Activity Assay (TR-FRET). The following applies: read-out: CDK2_El IC50, CDK2/CyclinE2 1 nM, ATP 1 mM. The method, then:
CDK2/CyclinE2 Enzymatic Activity Assay
(§1) The inhibitory activity of compounds was evaluated in vitro using TR-FRET assay with white 384-well low volume microplate (Greiner Bio-One). CDK2/Cyclin E2 catalyzed phosphorylation of peptide in the presence and absence of compounds was measured and used in IC50 determination. Recombinant protein complex CDK2/Cyclin E2, expressed from insect cell, was purchased from ProQinase. Testing compounds were dissolved in DMSO at 1 mM and tested in 9-dose IC50 mode. The reaction mixture was prepared by mixing CDK2/CyclinE2 (1 nM final), ULight-4E-BP1 (50 nM final, Perkinelmer, TRF0128-D), and ATP (1 mM final) in assay buffer (20 mM of HEPES pH 7.4, 1 mM of EGTA, 0.05% BSA, 0.005% Tween 20, and 1 mM TCEP). The compound of interest in DMSO was added to each well in 3-fold serial dilution by dispenser (TECAN D300E) to make a 9.9 μL of reaction mixture. After 20 minutes preincubation at room temperature, 0.1 μL MgCl2 (10 mM final) was added to initiate the reaction. […] The reaction signal was measured by Envision multimode plate reader (PerkinElmer, 2102-0010). IC50 values were determined by fitting the data to the standard 4 parameters with Hill Slope using GraphPad Prism software.
In general terms: In TR-FRET formats the signal depends on donor and acceptor labels being close together.

For test [2], the target named is CDK4/Cyclin D1 (Homo sapiens, UniProt P11802). Description: CDK4/CyclinD1 Enzymatic Activity Assay (TR-FRET). Particulars: read-out: CDK4_D1 IC50, CDK4/CyclinD1 1 nM, ATP 2 mM. As for the experimental part:
CDK4/CyclinD1 Enzymatic Activity Assay
as §1, with “(Greiner Bio-One). CDK4/Cyclin D1 catalyzed phosphorylation” for “(Greiner Bio-One). CDK2/Cyclin E2 catalyzed phosphorylation”, “protein complex CDK4/Cyclin D1, expressed from” for “protein complex CDK2/Cyclin E2, expressed from”, “by mixing CDK4/CyclinD1 (1 nM” for “by mixing CDK2/CyclinE2 (1 nM”, “final), ULight-4E-BP1 (100 nM final,” for “final), ULight-4E-BP1 (50 nM final,”, “and ATP (2 mM final)” for “and ATP (1 mM final)”, “dilution by the dispenser (TECAN” for “dilution by dispenser (TECAN”

As to `CC(C)C12CCCN1C(=O)c1cc(-c3nc(NC4CCN(S(C)(=O)=O)CC4)ncc3C(F)(F)F)sc12` (single isomer, unassigned), the IC50 in test [1] and in test [2] was less than 0.1 µM each time.

Regarding `CC(C)C12CCCCN1C(=O)c1cc(-c3nc(NC4CCN(S(C)(=O)=O)CC4)ncc3C(F)(F)F)sc12` (single isomer, unassigned), the IC50 in test [1] and in test [2] was less than 0.1 µM each time.
